Experimental data published in paper PMC10870243 (Clinical and Translational Science, 2024).
Like-named read-outs stand apart in the source and are kept apart here.

Assay type: in vivo, human
Conditions: for PTR (peak-to-trough ratio): geometric mean; for CL/F: geometric mean (%CV)
[1] = clesacostat 15 mg + ervogastat 300 mg b.i.d., Day 14
[2] = clesacostat 15 mg b.i.d. alone, Day 7

For `COc1cc(C(=O)N2CCC3(CC2)CC(=O)c2c(cnn2C(C)C)C3)cc(-c2ccc(C(=O)O)cc2)n1` [clesacostat], the “PTR (peak-to-trough ratio)” value [1] was 2.41 h, the CL/F [1] was 1.58 (23) L/h and the “PTR (peak-to-trough ratio)” value [2] was 1.92 h. For the same molecule, the CL/F [2] was 1.24 (26) L/h.
